## Antibody variant affinities, Ab-95 light chain, assay 2

Values reported by Engelhart et al. 2022, doi:10.1038/s41597-022-01779-4 (FLAb copy).

Target: peptide PDVDLGDISGINAS, taken from heptad repeat 2 (HR2) of SARS-CoV-2 spike.

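The parent was found by panning a naive human phage display library on the peptide. The library (AAYL52) carries one to three amino acid substitutions per variant, with no insertions or deletions. In AlphaSeq, yeast of one mating type display the scFv and yeast of the other type display the target. Pairs that bind mate more often; barcode pairs of the diploids are counted by sequencing. Scores were corrected for input abundance and mapped to Kd with protein pairs of known affinity run in the same pool. The assay was run in three technical replicates.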

The variants keep the heavy chain, the linker and the frameworks of Ab-95 (scFv order VH, a 15-residue (Gly4Ser)3 linker, VL).
VH: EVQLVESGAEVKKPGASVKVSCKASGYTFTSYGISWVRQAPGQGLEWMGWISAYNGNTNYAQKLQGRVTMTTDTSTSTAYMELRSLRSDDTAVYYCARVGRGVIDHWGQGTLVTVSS
VL: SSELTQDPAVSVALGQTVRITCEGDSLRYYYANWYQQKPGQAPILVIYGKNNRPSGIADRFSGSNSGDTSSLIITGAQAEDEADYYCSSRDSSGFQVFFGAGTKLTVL

Changes read parent residue, position, new residue, counted from the first residue of the VL shown. Values are log10 of the apparent Kd in nM; lower means stronger binding. A mean of the replicates is given; it leaves out those without a signal. An entry "nd" has no value in the source: the pair was not observed among the diploids in that replicate. This suggests poor binding but is not conclusive. In this assay the parent's reference entry averaged 2.31; its copy inside this library read 2.25.

changes | replicates, log10 nM | log10 Kd (nM), mean
Y29R R53A F95I | 3.14 nd 4.22 | 3.68
S26R K50E S88T | 2.43 2.27 1.48 | 2.06
R90K G94V Q96R | 1.83 1.64 2.07 | 1.85
R28M G49N S92F | 2.59 1.98 2.32 | 2.29
S89E F95D F98D | 3.28 2.80 2.80 | 2.96
Y29T Y31N G49S | 1.37 1.18 3.13 | 1.89
S26I S55C V97A | nd nd nd | nd
Y29Q K50G Q96G | 2.17 2.26 2.55 | 2.33
Y30M P54Y S89C | 1.79 2.31 1.21 | 1.77
S88P D91A F98G | 3.98 nd nd | 3.98
R90P D91F G94Q | 3.75 4.05 4.14 | 3.98
A32V S55I R90T | 3.22 nd nd | 3.22
L27F N52Q V97L | 2.65 4.06 nd | 3.36
G24F K50P F98P | 3.02 4.21 2.71 | 3.31
E23G A32S G49V | nd nd nd | nd
E23N S55M Q96K | 2.60 2.42 3.07 | 2.70
G94H Q96D | 3.21 3.10 4.19 | 3.50
S26V G49I P54T | 4.77 nd nd | 4.77

Continued, with the values leading:

replicates, log10 nM | log10 Kd (nM), mean | changes
nd 3.40 nd | 3.40 | S26I N33I K50G
1.91 2.70 1.96 | 2.19 | E23Q D25Q S55W
nd nd nd | nd | G49R G94R
2.30 1.68 1.55 | 1.84 | L27H K50S S93T
3.69 3.20 3.41 | 3.43 | Y29R S89L R90V
3.15 2.63 2.44 | 2.74 | A32T S89Y D91I
nd 3.39 nd | 3.39 | G24A Y31M G94C
1.83 2.08 2.29 | 2.07 | D25K S26E L27F
2.75 2.56 2.78 | 2.70 | L27Q Y31D P54V
3.28 2.69 2.32 | 2.76 | R28I Y30P P54M
2.77 2.77 2.23 | 2.59 | D25V S93G
4.66 nd 4.16 | 4.41 | D25C F95V F98R
2.97 2.85 1.86 | 2.56 | S26Y A32P
1.61 1.59 1.36 | 1.52 | S26H Y30A G49Q
5.66 3.77 2.45 | 3.96 | D25I R28S S55C
3.02 2.40 3.86 | 3.09 | Y31D S89M F95Q
3.66 4.47 3.81 | 3.98 | P54L S55R
4.47 nd nd | 4.47 | K50R D91M V97D

As a blank, each scFv also met three strains without target: over library AAYL52, 28% of these pairings were detected, typically at 3.91 and seldom below 2.90.